Test results published in ChEMBL document CHEMBL2062483, “Design of Bcl-2 and Bcl-xL inhibitors with subnanomolar binding affinities based upon a new scaffold” (J Med Chem, 2012).

Chains of the proteins cited; added tags and fusions are not shown.
UniProt Q07820, whole entry: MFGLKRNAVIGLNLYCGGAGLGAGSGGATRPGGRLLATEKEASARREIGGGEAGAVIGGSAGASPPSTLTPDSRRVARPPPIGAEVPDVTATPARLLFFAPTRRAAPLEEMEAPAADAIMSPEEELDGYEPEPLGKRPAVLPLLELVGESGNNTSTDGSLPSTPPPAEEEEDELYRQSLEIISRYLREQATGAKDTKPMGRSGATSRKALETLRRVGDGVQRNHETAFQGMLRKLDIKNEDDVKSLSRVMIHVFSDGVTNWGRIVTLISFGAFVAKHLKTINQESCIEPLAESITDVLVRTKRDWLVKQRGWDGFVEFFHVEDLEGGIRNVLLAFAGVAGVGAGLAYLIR

Biological target: Induced myeloid leukemia cell differentiation protein Mcl-1 (Homo sapiens, UniProt Q07820)
Experiment: Binding affinity to N-terminus 8X His-tagged human Mcl1 expressed in Escherichia coli BL21 (DE3) cells after 2 hrs by fluorescence polarization assay
Summary of the method: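 Competitive FP binding: serially diluted inhibitor in DMSO added to preincubated protein/fluorescent probe complex, 2 h at room temperature with gentle shaking. Final protein/probe: Bcl-2 1.5 nM/1 nM; Bcl-xL 10 nM/2 nM; Mcl-1 20 nM/2 nM. […] IC50 from nonlinear regression; Ki calculated from IC50, probe Kd and protein/probe concentrations.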

Structure (SMILES): CN(C)CC[C@H](CSc1ccccc1)Nc1ccc(S(=O)(=O)NC(=O)c2ccc(N3CCN(Cc4ccccc4-c4ccc(Cl)cc4)CC3)cc2)cc1[N+](=O)[O-] [ABT 737]
- IC50: > 1000 nM
